Source: patent US20140243411A1, “TOPICAL DTPA PRODRUG FORMULATIONS AND METHODS OF USING THE SAME” (priority 2011, published 2014)

Legend:
[1] = Crawley and Haines; cited from earlier work
[2] = 250 g rat; calculated from literature half-life and volume of distribution

Substance: trisodium diethylenetriamine pentaacetic acid [DTPA]
- half-life of DTPA in extracellular fluid [1]: 18.5 min
- clearance of DTPA [2]: 0.02 L/h
